In patent US20120129870A1, “PIPERAZINYL DERIVATIVES USEFUL AS MODULATORS OF THE NEUROPEPTIDE Y2 RECEPTOR” (priority 2007, published 2012) one finds IC50 data, which are given here for one molecule.

Protein sequences, listed by entry. Tags and fused reporters are not part of them.
UniProt P49146, whole entry: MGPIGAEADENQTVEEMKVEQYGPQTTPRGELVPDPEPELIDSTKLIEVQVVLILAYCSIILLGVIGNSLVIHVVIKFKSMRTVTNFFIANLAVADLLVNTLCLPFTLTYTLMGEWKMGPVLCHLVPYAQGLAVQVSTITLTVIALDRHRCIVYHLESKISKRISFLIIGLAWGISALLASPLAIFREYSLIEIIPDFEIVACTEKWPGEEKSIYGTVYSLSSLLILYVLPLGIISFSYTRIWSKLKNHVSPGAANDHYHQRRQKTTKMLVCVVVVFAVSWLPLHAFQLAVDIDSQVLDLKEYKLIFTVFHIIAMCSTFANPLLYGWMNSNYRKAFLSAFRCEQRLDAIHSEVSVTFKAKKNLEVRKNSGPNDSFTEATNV

The experiment deals with NPY Y2 receptor (Homo sapiens, UniProt P49146). Nature of the experiment: Neuropeptide Y2 radioligand binding assay ([125I]PYY, KAN-Ts membranes). The settings on record: KAN-Ts membranes endogenously expressing Y2, [125I]PYY (80 pM), 1 h at rt.

In general, IC50 refers to the point on the concentration scale where inhibition reaches its midpoint. Read a low IC50 as inhibition by little substance. `CCC(CC)C(=O)Nc1ccc(N2CCN(C(C#N)c3ccco3)CC2)c(F)c1` (stereo not shown) came in with an IC50 of more than 10 µM.
